Measured values published in US6828320B2, “Heterocyclic compounds” (SmithKline Beecham Corporation, priority 1996, dated 2004).

Target: HB4a cell line transformed by over-expression of c-erbB-2 (Homo sapiens, UniProt P04626)
Assay: Cell proliferation assay, HB4a erbB-2
Format: cell-based
Conditions: 4 days at 37° C., methylene blue staining
Protocol: The cell proliferation assay uses an immortalised human breast epithelial cell line (HB4a) which has been transformed by over-expression of c-erbB-2. Growth of these cells in low serum is dependent upon the c-erbB-2 tyrosine kinase activity. […] Cells are plated at 3000/ well in 96-well plates in 0.1 ml medium and allowed to attach overnight. test compound is added in 0.1 ml medium, with a final concentration of 0.5% DMSO, and the plates incubated for 4 days at 37° C. The cells are then examined microscopically for evidence of morphological detransformation and cell mass is estimated by staining with methylene blue and measuring the absorbance at 620 nm. […] Activity against a range of naturally occurring EGFr or c-erbB-2 over-expressing human tumour cell lines (BT474-breast, HN5-head and neck, N87-gastric and Calu3-lung) is assessed with selected compounds by the same methodology.

Substance: (1-Benzyl-1H-indazol-5-yl)-(6-(5-methanesulphonylmethyl-1,3,4-oxadiazol-2-yl)-quinazolin-4-yl)-amine [Example 44]
- GI50: 1400 nM
